Reference: patent publication US20150132328A1 (priority 2011, published 2015)
Where two headings read alike, the source gives them in different places.

System: THP-1 cells
Conditions: IMMP 10^−10 M where added

Cortisone
Cell Viability (% with respect to the control) (cortisone 10^−6): 65 ± 5 %
Cell Viability (% with respect to the control) (cortisone 10^−7): 70 ± 7 %
Cell Viability (% with respect to the control) (cortisone 10^−8): 80 ± 6 %
